{
  "sequences": {"note": "Amino acid sequences for entries named in this document (tags omitted). A change or cut given only in a name is not applied to a line headed by its entry.", "UniProt P0A6K3": "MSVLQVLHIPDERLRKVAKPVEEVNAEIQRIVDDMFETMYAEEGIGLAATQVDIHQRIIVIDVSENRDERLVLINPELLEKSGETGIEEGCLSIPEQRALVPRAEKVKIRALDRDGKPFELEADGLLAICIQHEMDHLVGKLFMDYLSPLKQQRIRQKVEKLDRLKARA"},
  "source": "patent US8614237B2",
  "about": "“Benzofuran-4,5-diones as selective peptide deformylase inhibitors” (Sloan-Kettering Institute for Cancer Research, priority 2009, dated 2013)",
  "target": "EcPDF (Escherichia coli, UniProt P0A6K3)",
  "conditions": "read-out: EcPDF IC50, FP assay; dose response, 12 point doubling dilutions, upper limit 100 μM",
  "data": [
    {"smiles": "COc1ccc(C(=O)c2coc3c2C(=O)C(=O)C(Cl)=C3Cl)cc1OC", "note": "[SKC-BF-10, 6,7-Dichloro-3-(3,4-dimethoxy-benzoyl)-benzofuran-4,5-dione]", "values": [
      {"measurement": "IC50", "value": 67, "unit": "µM"}
    ]}
  ]
}
